# The list shows a part of the results, in another mix than the full data. Active and inactive are the calls of the source. Rule as the data show it: active = inhibition above about 45%; inactive = the rest.
# By UniProt entry, the sequences of proteins in these tests, tags left out. Residues count along the entry.
# UniProt P07711, 114-288 limits assumed: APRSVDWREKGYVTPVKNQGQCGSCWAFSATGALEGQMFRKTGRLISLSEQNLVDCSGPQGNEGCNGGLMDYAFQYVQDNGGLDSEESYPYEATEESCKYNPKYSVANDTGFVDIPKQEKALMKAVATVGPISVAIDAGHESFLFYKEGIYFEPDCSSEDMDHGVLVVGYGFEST
# UniProt P07711, 292-333 limits assumed: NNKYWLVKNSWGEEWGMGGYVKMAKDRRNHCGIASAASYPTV
# Target: Procathepsin L (Homo sapiens) (UniProt P07711)
# Assay: blockers of CTSL protease activity – biochemical (AID 460);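 also: 0% = enzyme with no compound and 100% = no enzyme blank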
# Conditions: purified cathepsin L, fluorogenic substrate, fluorescence; active compounds read high;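 tested at 10 µM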
row,Compound,inhibition
1,COc1ccccc1OP(C)(=O)Nc1ccc(C)c(C)c1 (stereo not drawn),inactive: 18.8%
2,Cc1nc2ccc3ccccc3c2o1.O=[N+]([O-])c1cc([N+](=O)[O-])c(O)c([N+](=O)[O-])c1,inactive: -6.27%
3,CP(=O)(Nc1ccccn1)Oc1ccccc1 (stereo not drawn),inactive: 14.4%
4,CCN(CC)CC(O)COC(=O)C(O)(c1ccccc1)C1CCCCC1 (stereo not drawn),inactive: 1.99%
5,COc1ccccc1OP(C)(=O)Nc1c(C)n(C)n(-c2ccccc2)c1=O (stereo not drawn),inactive: 2.05%
6,CP(=O)(Oc1ccccc1)N1CCOC1=O (stereo not drawn),inactive: -8.08%
7,CN(C)CCOC(=O)C(O)(c1ccccc1)C1CCCCC1 (stereo not drawn),inactive: -0.99%
8,CCOP(C)(=S)SCC(=O)NC(C)(CC)C(=O)O (stereo not drawn),inactive: 13.9%
9,CP(=O)(Nc1ccc2c(c1)OCCO2)Oc1ccccc1 (stereo not drawn),inactive: -12.9%
10,Cc1ccccc1NP(C)(=O)Nc1ccccc1C,inactive: 2.51%
11,CP(=O)(Nc1ccccc1F)Oc1ccccc1 (stereo not drawn),inactive: -5.78%
12,Cc1ccc(C)c(NP(C)(=O)Oc2ccccc2)c1 (stereo not drawn),inactive: -5.13%
13,Cc1nc2ccc3ccccc3c2s1.O=[N+]([O-])c1cc([N+](=O)[O-])c(O)c([N+](=O)[O-])c1,inactive: 4.29%
14,CP(=S)(Nn1cnnc1)Oc1ccccc1 (stereo not drawn),inactive: 5.24%
15,CP(=O)(NC(=O)Nc1ccccc1)Oc1ccccc1 (stereo not drawn),inactive: 4.22%
16,CCOP(C)(=S)SCC(=O)NC(C)C(=O)O (stereo not drawn),inactive: 9.35%
17,COc1ccccc1OP(C)(=O)Nc1ccc(C)cc1 (stereo not drawn),inactive: 7.95%
18,Cc1ccc(NP(C)(=O)Oc2ccccc2)c(C)c1 (stereo not drawn),inactive: -9.67%
